Values joined by “and” are separate entries in the source; they are usually repeats but may differ in a detail not shown here. Identical values can stand only once.
Test system: patients with relapsed or refractory B cell lymphoma
Assay: Clinical study of daily oral compound in patients with relapsed or refractory B cell lymphoma (dose cohorts 50-400 mg daily)
Details: per patient

c1cc(-c2nc(N3CCOCC3)c3oc4ncc(CN5C[C@@H]6C[C@H]5CO6)cc4c3n2)c2cc[nH]c2c1 [Compound A, 4-(1H-Indol-4-yl)-6-(morpholin-4-yl)-12-[(1S,4S)-2-oxa-5-azabicyclo[2.2.1]heptan-5-ylmethyl]-8-oxa-3,5,10-triazatricyclo[7.4.0.0^2,7]trideca-1(13),2(7),3,5,9,11-hexaene]
Drug Holiday (Cohort 1, 50 mg daily): 14 days and 16 days
Drug Holiday (Cohort 3, 200 mg daily): 20 days
Drug Holiday: event causing it (Cohort 3, 200 mg daily): infection)
Drug Holiday (Cohort 4, 400 mg daily): 42 days and 28 days and 16 days

From patent US12551487B2, “PI3K inhibitor for use in the therapy of b cell lymphoma” (Convalife (Shanghai) Co. Limited, priority 2019, dated 2026)
